## Binding of CDR-mutated scFvs to a peptide of the spike HR2 region

Target peptide (SARS-CoV-2 spike, HR2 region): PDVDLGDISGINAS

Parent: Ab-95, a human scFv built as VH, three GGGGS repeats, VL. Only the CDRs of the light chain vary.
VH: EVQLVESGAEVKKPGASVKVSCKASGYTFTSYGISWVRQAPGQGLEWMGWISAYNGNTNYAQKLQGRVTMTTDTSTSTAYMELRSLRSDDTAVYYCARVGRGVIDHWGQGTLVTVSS
VL: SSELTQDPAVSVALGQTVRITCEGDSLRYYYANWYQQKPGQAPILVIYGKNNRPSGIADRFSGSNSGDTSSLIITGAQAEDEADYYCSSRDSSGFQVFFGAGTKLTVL

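The starting antibody came from a phage panning campaign against this peptide. Library AAYL52 holds single substitutions and randomly drawn double and triple substitutions in the CDRs. Affinity was read by AlphaSeq, a pooled yeast mating assay with surface-displayed partners. Binding brings cells together so that they mate, and sequencing counts the barcode pairs among the diploids. Each replicate has its own calibration line, from reference interactions of the BCL2 family. The assay was run in three technical replicates.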

Substitutions are numbered in sequence along the VL above, starting at 1 (not Kabat).
Affinities are written as log10 Kd with Kd in nM; a lower number is a better binder.
Where no diploid with the target was found in that replicate, the entry reads "nd": below detection, most likely a poor binder, though not proof of it.
Parent in this assay: reference entry 2.31, copy in this library 2.25.
Three control strains display no target. For library AAYL52, 28% of the pairings with them gave a signal, with a median of 3.91 and one signal in twenty below 2.90, so weak values seen in few replicates may be background. The control count says in how many pairings with the empty strains this scFv gave a signal, with their mean in brackets.

changes	log10 Kd, replicates	signal with controls
Y31M/S93G/F98D	4.05 2.64 nd	2 of 9 (4.15)
E23M/G24Y/Y31F	nd nd nd	2 of 9 (3.98)
Y30D/S55D/V97W	2.73 2.94 3.23	4 of 9 (4.36)
L27M/R53S/R90M	4.96 nd nd	5 of 9 (3.88)
G49S/N51H/S55E	3.23 nd 4.25	3 of 9 (4.36)
S26E/N33Y/S93G	2.84 5.80 3.63	5 of 9 (3.71)
N33T/N51I	3.76 3.43 nd	5 of 9 (3.99)
D25M/N52R/F98H	4.76 4.75 3.91	2 of 9 (3.03)
G24Q/N33K/R53N	3.27 nd nd	5 of 9 (3.89)
G24V/S93L/V97A	nd 3.45 nd	0 of 9
Y31K/S88Q/R90I	2.60 2.50 2.95	3 of 9 (4.00)
S26Y/A32G/P54V	3.95 3.73 3.37	1 of 9 (5.14)
P54N/S88Y/S92P	3.48 4.42 nd	2 of 9 (4.40)
G24Q/A32C/P54H	4.53 3.89 nd	2 of 9 (4.16)
Y30I/N51H/R53M	4.77 nd nd	3 of 9 (4.00)
N52Y/S89M/F95C	3.03 3.37 nd	2 of 9 (4.46)
S88D/F95H/Q96G	3.78 4.49 nd	2 of 9 (3.33)
A32C/K50V/R90E	3.66 nd nd	4 of 9 (3.78)
E23V/N52F/S55A	2.26 2.69 2.04	3 of 9 (4.26)
Y30S/R90Q/G94L	1.53 1.22 0.96	5 of 9 (4.28)
A32G/N33G/S92P	3.70 5.37 4.99	5 of 9 (4.18)
N52P/Q96E/V97L	3.36 nd 3.91	3 of 9 (3.97)
D25C/P54Y/G94S	nd 5.94 nd	2 of 9 (4.19)
S26V/S93D	3.48 3.61 2.92	0 of 9
G24Y/S26E/Y29V	2.85 2.54 3.16	4 of 9 (3.60)
L27S/R53I/F95E	3.26 3.94 3.81	2 of 9 (4.65)
E23T/R28D/F95C	2.43 2.86 3.04	4 of 9 (4.15)
R53M	3.01 2.59 2.46	2 of 9 (3.35)
D25I/S88A/S89I	2.69 2.71 2.32	3 of 9 (4.05)
N33I/S93G/Q96H	3.67 nd nd	1 of 9 (4.60)
N33I/S89K/S92L	4.12 4.86 nd	2 of 9 (4.19)
A32S/N52V/P54T	3.09 3.28 4.10	6 of 9 (3.84)
R28C/A32N/N33C	5.18 nd 4.36	4 of 9 (4.24)
G24V/A32F/S93H	nd nd nd	4 of 9 (4.04)
S26V/R90L/V97L	4.53 nd nd	3 of 9 (3.99)
S26A/N33W/G49M	nd nd nd	2 of 9 (4.04)
P54G/D91N/Q96M	3.87 nd nd	4 of 9 (4.03)
R28P/S89G/G94S	2.74 2.46 3.19	3 of 9 (3.27)
Y31C/S92Q/V97H	nd nd nd	1 of 9 (3.25)
Y30I/S55M/S88D	nd 5.35 3.30	2 of 9 (3.94)
Y31T/N33H/S55K	0.98 1.43 0.54	4 of 9 (4.30)
G49T/K50R/S55R	nd 4.44 nd	4 of 9 (4.28)
E23S/S88Y/V97I	3.39 2.52 3.38	2 of 9 (4.77)
E23Y/S93R	2.37 2.68 2.24	2 of 9 (3.76)
E23V/S26T/F98E	3.00 2.50 3.14	8 of 9 (4.22)
E23A/G24T/Q96P	2.80 4.34 nd	6 of 9 (3.63)
G24C/R53W/S55H	nd nd 3.49	4 of 9 (3.85)
Y29H/Q96C/F98S	1.80 1.83 1.69	2 of 9 (5.02)

The last 7 entries again:

changes	log10 Kd, replicates	signal with controls
G49T/K50R/S55R	nd 4.44 nd	4 of 9 (4.28)
E23S/S88Y/V97I	3.39 2.52 3.38	2 of 9 (4.77)
E23Y/S93R	2.37 2.68 2.24	2 of 9 (3.76)
E23V/S26T/F98E	3.00 2.50 3.14	8 of 9 (4.22)
E23A/G24T/Q96P	2.80 4.34 nd	6 of 9 (3.63)
G24C/R53W/S55H	nd nd 3.49	4 of 9 (3.85)
Y29H/Q96C/F98S	1.80 1.83 1.69	2 of 9 (5.02)

Values reported by Engelhart et al. 2022, doi:10.1038/s41597-022-01779-4 (FLAb copy).